Results from US4145296A, “Weather-durable aqueous fire retardant stabilized against gelation” (priority 1977, dated 1979).

Conditions: additive at 3 percent weight

With `NCCN` [Ethylenediamine, diaminoethane] the “Viscosity in centipoises at 21-28 Hrs.” value was 1050 centipoises.
